US10253035B2 (priority 2016, dated 2019)
Where two headings read alike, the source gives them in different places.

Test system: Mtb H37Rv
Assay type: cell-based
[1] = anti-TB activity of KAN against Mtb H37Rv with compound at concentration tested (100-fold IC50 or 100 μM), Example 3

Row | SMILES | H37Rv MICKAN (anti-tubercular activity of KAN against Mtb H37Rv with compound at 100-fold IC50 or 100 μM, Example 2) | H37Rv MICKAN [1]
1 | O=C(C[N+]1=C(c2ccc(F)c(F)c2)c2cccn2CC1)c1cccc(Cl)c1.[Br-] [Compound 3d] | ≤1.25 µg/mL | –
2 | CN(c1ccc(Br)cc1)S(=O)(=O)c1ccc2[nH]c(=O)c(=O)[nH]c2c1 [Compound 29] | – | ≤1.25 µg/mL
3 | O=c1[nH]c2ccc(S(=O)(=O)Nc3ccc(Br)cc3)cc2[nH]c1=O [Compound 30] | – | ≤1.25 µg/mL
4 | CN(c1ccccc1)S(=O)(=O)c1ccc2[nH]c(=O)c(=O)[nH]c2c1 [Compound 31] | – | ≤1.25 µg/mL
5 | O=c1[nH]c2ccc(S(=O)(=O)Nc3ccccc3)cc2[nH]c1=O [Compound 32] | – | ≤1.25 µg/mL
6 | CC(C)c1ccc(N(C)S(=O)(=O)c2ccc3[nH]c(=O)c(=O)[nH]c3c2)cc1 [Compound 33] | – | ≤1.25 µg/mL
7 | CC(C)c1ccc(NS(=O)(=O)c2ccc3[nH]c(=O)c(=O)[nH]c3c2)cc1 [Compound 34] | – | ≤1.25 µg/mL
8 | CN(c1ccc(Cl)cc1)S(=O)(=O)c1ccc2[nH]c(=O)c(=O)[nH]c2c1 [Compound 35] | – | ≤1.25 µg/mL
9 | COc1ccccc1N(C)S(=O)(=O)c1ccc2[nH]c(=O)c(=O)[nH]c2c1 [Compound 36] | – | ≤1.25 µg/mL
10 | CN(c1cccc(F)c1)S(=O)(=O)c1ccc2[nH]c(=O)c(=O)[nH]c2c1 [Compound 37] | – | ≤1.25 µg/mL
11 | CN(c1cccc(Br)c1)S(=O)(=O)c1ccc2[nH]c(=O)c(=O)[nH]c2c1 [Compound 38] | – | ≤1.25 µg/mL
12 | COc1cccc(N(C)S(=O)(=O)c2ccc3[nH]c(=O)c(=O)[nH]c3c2)c1 [Compound 39] | – | ≤1.25 µg/mL
13 | COc1cc(OC)cc(N(C)S(=O)(=O)c2ccc3[nH]c(=O)c(=O)[nH]c3c2)c1 [Compound 40] | – | ≤1.25 µg/mL
14 | Cc1cccc(N(C)S(=O)(=O)c2ccc3[nH]c(=O)c(=O)[nH]c3c2)c1 [Compound 41] | – | ≤1.25 µg/mL
15 | CCc1cccc(N(C)S(=O)(=O)c2ccc3[nH]c(=O)c(=O)[nH]c3c2)c1 [Compound 42] | – | ≤1.25 µg/mL
16 | CC(C)c1cccc(N(C)S(=O)(=O)c2ccc3[nH]c(=O)c(=O)[nH]c3c2)c1 [Compound 43] | – | ≤1.25 µg/mL
17 | CCCCc1cccc(N(C)S(=O)(=O)c2ccc3[nH]c(=O)c(=O)[nH]c3c2)c1 [Compound 44] | – | ≤1.25 µg/mL
18 | CN(c1cccc(C(C)(C)C)c1)S(=O)(=O)c1ccc2[nH]c(=O)c(=O)[nH]c2c1 [Compound 45] | – | ≤1.25 µg/mL
19 | COc1cc(N(C)S(=O)(=O)c2ccc3[nH]c(=O)c(=O)[nH]c3c2)cc2ccccc12 [Compound 47] | – | ≤1.25 µg/mL
